# Data: PubChem BioAssay (NCI)
# This is a selection; strong and weak results do not stand in their true shares. Activity calls are given as the source filed them. Rule as the data show it: active = growth inhibition above about 70%; inactive = the rest.
# Experiment: NCI Yeast Anticancer Drug Screen. Data for the mlh1 rad18 strain (AID 175)
# Settings: S. cerevisiae mlh1 rad18 strain growth inhibition; at 50.0 µM; stronger effect = higher value
row,Structure (SMILES),growth inhibition
1,O=C1C(Cl)=C(NCCCl)C(=O)C(Cl)=C1NCCCl,inactive: 7.1%
2,O=C(CSc1ccccn1)c1ccccc1,inactive: 3.15%
3,NC1=NP(=O)(Oc2ccccc2)N=C(Nc2ccccc2)N1 (configuration not stated),inactive: 16.7%
4,CCCCOP(=O)(OCCCC)N1CCCC1C(=O)O (configuration not stated),inactive: -12.6%
5,O=C(OCc1ccc([N+](=O)[O-])cc1)N(CCCl)CCCl,inactive: 5.85%
6,CC1COP(N(C(C)C)C(C)C)O1 (configuration not stated),inactive: 4.8%
7,NP(=O)(OCCCCO)N(CCCl)CCCl (configuration not stated),inactive: 18.8%
8,ClCCNCc1ccc2c(c1)OCO2,inactive: -37.2%
9,FC(Cl)C(F)(F)Sc1ccc(Cl)cc1 (configuration not stated),inactive: -36.8%
10,O=C1CCC(C(=O)OC2CN3CCC2CC3)C(=O)N1 (configuration not stated),inactive: 31.5%
11,ClCCN1CN(CCCl)c2ccccc21,inactive: -39.2%
12,Cc1c([N+](=O)[O-])c([N+](=O)[O-])c(CCn2cnc3c(N(CCO)CCO)ncnc32)c([N+](=O)[O-])c1[N+](=O)[O-],inactive: 14.8%
13,C[n+]1cc(-c2ccccc2)cc2ccccc21,inactive: 24.4%
14,O=[N+]([O-])c1cccc(S(=O)(=O)N(CCCl)CCCl)c1,inactive: 11.4%
15,O=C(O)C(CCCNc1ccc([N+](=O)[O-])cc1[N+](=O)[O-])Nc1ccc([N+](=O)[O-])cc1[N+](=O)[O-] (configuration not stated),inactive: 40%
16,[N-]=[N+]=Nc1cc(N)c([N+](=O)[O-])cc1[N+](=O)[O-],inactive: 27.1%
17,CN(C)NC(=O)NP(=O)(NC(=O)NN(C)C)NC(=O)NN(C)C,inactive: -0.25%
